G9a block – inhibitors of human histone lysine methyltransferase G9a. Q96KQ7. G9a H3K9 monomethylation, AlphaScreen, 2 h. Potency, µM (highest dose often 102 µM), for the others: top-dose activity, negative = inhibition, actives largely listed as inhibitors. actives 8.8% (n = 350,000); note: potency is the fitted concentration of half-maximal effect; % is set by controls: 0 for no effect and ±100 for the full control effect; nearly all actives have a fitted effect of over 75% in size
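Chemiluminescent proximity detection of H3K9 monomethylation, read after 10 min bead incubation in the dark. Reaction: 20 nM G9a, 500 nM biotin-H3K9 peptide, 20 uM SAM cofactor, 2 h, room temperature, following 15 min enzyme-compound preincubation.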
Sfp PPTase inh – Sfp phosphopantetheinyl transferase inhibition. 3.5% of 310,000 active. AID 1490. Potency, µM, inactives show max response, negative = inhibition, actives largely listed as inhibitors. Biochemical Sfp PPTase activity, qHTS; active = well fitted inhibition curve with a large enough effect; inconclusive = small, poorly fitted or top-dose-only effect, or another doubt; inactive = no such curve, though single readings can be large or run the other way;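 note: the enzyme is Sfp with the accession as filed and its product quenches rhodamine fluorescence; potency is the fitted concentration of half-maximal effect; 0% = enzyme reaction without inhibitor and -100% = no enzyme wells; top concentration of the series not given in the record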
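With Hepes-Na pH 7.6 buffer containing 10 mM MgCl2, Sfp (15 nM) modified BHQ-2-YbbR (12.5 uM) using rhodamine-CoA (5 uM). Two reads 30 minutes apart at 525/598 nm yielded each well's rate.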
ALDH1A1 block – ALDH1A1 (human) enzyme inhibition | P00352 | Purified ALDH1A1, NADH fluorescence, propionaldehyde substrate | Potency, µM (highest dose often 75.3 µM), for inactives: top-dose activity, negative = inhibition, hits mostly inhibitors | actives 7.3% (n = 220,000); active = well fitted inhibition curve with a large enough effect, not every such curve was filed as active; inconclusive = small, poorly fitted or top-dose-only effect, or another doubt; inactive = no such curve, though single readings can be large or run the other way;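 note: potency is the fitted concentration of half-maximal effect; plate controls were no enzyme wells and a reference inhibitor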
KDM4E inh – inhibitors of human JMJD2E histone demethylase; B2RXH2; JMJD2E catalytic domain, FDH-coupled NADH fluorescence (FDH is formaldehyde dehydrogenase); Potency, µM (top dose mostly 57.1 µM), for inactives: at the highest dose activity change, negative = inhibition, hits mostly inhibitors; actives 1.6% (n = 230,000); active = well fitted inhibition curve with a large enough effect, not every such curve was filed as active; inconclusive = small, poorly fitted or top-dose-only effect, or another doubt; inactive = no such curve, though single readings can be large or run the other way;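 note: potency is the fitted concentration of half-maximal effect; 0% = wells with enzyme and -100% = buffer wells without enzyme; nearly all actives have a fitted effect of over 50% in size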
miR-21 reporter – miR-21 reporter, rising signal. 340,000 tested, under 10 active. Potency, µM (highest dose often 38.3 µM), for the others: at the highest dose reporter change, positive = more light. HeLa miR-21 FLuc reporter, luciferase, 48 h. AID 2288; active = well fitted rising curve with a large enough effect; inconclusive = small, poorly fitted or top-dose-only effect; inactive = no such curve, though single readings can be large or run the other way;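 further: % of control where 0% means no effect; miR-21 action dims this reporter so a rising signal means less miR-21 action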
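HeLa cells endogenously expressing miR-21, stably carrying CMV-driven firefly luciferase with a downstream miR-21 binding site, 2000 cells/well. Titrations up to approximately 40 uM, 48 hours; luciferase luminescence read.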
LMNA splice mod – modulators of lamin A splicing | HeLa LMNA splicing GFP/RFP minigene ratio, 48 h | Potency, µM (doses to about 46.1 µM), for the others: top-dose ratio change, negative = inhibition, most hits filed as inhibitors | actives 0.01% (n = 200,000); active = well fitted inhibition curve with a large enough effect in the signal ratio, with a control signal flat, not every such curve was filed as active; inconclusive = small, poorly fitted or top-dose-only effect, or effect the other way, or a change in a side signal; the % refers to the signal ratio; note: potency is the fitted concentration of half-maximal effect; % is set by controls: 0 for no effect and ±100 for the full control effect
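S3 HeLa cells stably expressing lamin A-EGFP splicing minigene plus DsRed2, 600 cells/well, 48 h compound exposure at 37C. Laser-scanning cytometry; analysed as GFP (500-530 nm)/RFP (575-640 nm) total intensity ratio; 0.5% DMSO vehicle.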
Numbers without * were called inactive; ? = inconclusive; / = no result; ! = not active in a repeat; [ ] = remark or other dose. A selection: hits, their analogues and other compounds. The true share with any hit is near 13%. Unless noted, calls come from the whole dose curve; as a rule, active = well fitted curve in the direction sought with a large enough effect; inconclusive = small, poorly fitted or top-dose-only effect, or another doubt; inactive = no such curve, though single readings can be large; an effect the other way counts as inactive or inconclusive.

1) COc1ccc(CCCO[C@@H](Cn2ccnc2)c2ccc(OC)cc2)cc1
2) CCc1ccc(NC(=O)c2cc3c(COC(C)=O)cnc(C)c3oc2=O)cc1
3) O=c1cc(-c2ccc(O)cc2)oc2cc(OC3OC(CO)C(O)C(O)[C@H]3O[C@@H]3OC[C@@](O)(CO)C3O)cc(O)c12 (stereo partly specified)
4) CCCC(=O)Nc1cccc(NC(=O)c2ccccc2Br)c1
5) CCCC(=O)Nc1ccc(Cl)c(NC(=O)c2cccc(OC)c2)c1
6) CCCC(=O)Nc1ccc(C(=O)NNC(=O)c2ccccc2Br)cc1
7) O=[N+]([O-])c1ccc(/C=N/NC(=S)Nc2ccc(Cl)cc2Cl)s1
8) O=[N+]([O-])c1ccc(O)c(/C=N/NC(=S)Nc2ccc(Cl)cc2Cl)c1

Assay by compound | 1 | 2 | 3 | 4 | 5 | 6 | 7 | 8
G9a block | / | -4%[59 µM] | / | 7%[59 µM] | -11% | 22µM* | ? | /
Sfp PPTase inh | -4% | / | -6% | 15% | 6% | -28% | 56µM* | -20%
ALDH1A1 block | ? | / | -6% | -4% | 2.8µM* | ? | / | /
KDM4E inh | -2% | / | ? | 5% | 0% | 0% | 5% | 8.9µM*
miR-21 reporter | / | -18% | / | -4% | 2% | -8% | 0% | 0%
LMNA splice mod | / | -16%[46 µM] | -3% | -14% | / | 9% | / | /

Complete entries, quoted from the list. Order of screens: G9a block, Sfp PPTase inh, ALDH1A1 block, KDM4E inh, miR-21 reporter, LMNA splice mod
`CCCC(=O)Nc1ccc(Cl)c(NC(=O)c2cccc(OC)c2)c1` as listed: -11%, 6%, 2.8µM*, 0%, 2%, /
`CCCC(=O)Nc1cccc(NC(=O)c2ccccc2Br)c1` as listed: 7%[59 µM], 15%, -4%, 5%, -4%, -14%

New compounds follow.
9) COc1ccccc1CNC(=O)C1CCN(S(=O)(=O)c2ccc3c(c2)CCCN3C(C)=O)CC1
10) CCc1ccc(NC(=O)CCCn2nc(C)c3c(C)n(-c4ccccc4)nc3c2=O)cc1
11) Oc1ccc(-c2nc(-c3ccc(F)cc3)c(-c3ccncc3)[nH]2)cc1
12) Fc1ccc(-c2nc(-c3cccs3)[nH]c2-c2ccc(F)cc2)cc1
13) CC1CCC(NC(=O)c2ccc(CSc3nc4ccncc4n3Cc3ccc(F)cc3)cc2)CC1 (stereo unspecified)
14) Cc1ccc(OCC(=O)NNC(=S)NC(=O)C2CCCCC2)c(C)c1
15) Cc1ccc(OCC(=O)NC(=S)Nc2ccccn2)c(Br)c1
16) Cc1ccc(OCC(=O)NNC(=S)NC(=O)C(C)(C)C)c(Br)c1

Assay by compound | 9 | 10 | 11 | 12 | 13 | 14 | 15 | 16
G9a block | 5%[59 µM] | 4%[59 µM] | 13µM*! | ? | ? | 18µM* | ? | 25µM*
Sfp PPTase inh | / | / | -25% | 6% | / | 30% | 6% | 7%
ALDH1A1 block | / | / | ? | ? | / | / | / | -10%
KDM4E inh | / | / | ? | ? | / | / | / | ?
miR-21 reporter | 1% | 2% | / | ? | 20% | -1% | 22% | -12%
LMNA splice mod | -10%[46 µM] | / | ? | ? | / | / | / | /

Part of the list above, with each value named.
13: CC1CCC(NC(=O)c2ccc(CSc3nc4ccncc4n3Cc3ccc(F)cc3)cc2)CC1 (stereo unspecified)
  G9a block: ?
  Sfp PPTase inh: /
  ALDH1A1 block: /
  KDM4E inh: /
  miR-21 reporter: 20%
  LMNA splice mod: /

14: Cc1ccc(OCC(=O)NNC(=S)NC(=O)C2CCCCC2)c(C)c1
  G9a block: 18µM*
  Sfp PPTase inh: 30%
  ALDH1A1 block: /
  KDM4E inh: /
  miR-21 reporter: -1%
  LMNA splice mod: /

(more compounds)
17) Cc1ccc(OCC(=O)NNC(=S)NC(=O)C2CC2)c(C)c1
18) Cc1ccc(OCC(=O)NNC(=O)c2ccc(NC(=O)C3CC3)cc2)c(C)c1
19) CCCCCc1nnc(NC(=O)c2cccc(S(=O)(=O)N3CCOCC3)c2)s1
20) COc1ccc(-c2noc(-c3ccc(N4CCN(c5ccccc5OC)CC4)c([N+](=O)[O-])c3)n2)cc1
21) COc1nc(-c2ccc(Cl)cc2)ccc1-c1noc(-c2ccco2)n1
22) CCc1nc(-c2ccc(-c3ccc(OC)cc3)nc2OC)no1
23) COc1cccc(-c2ccc(-c3noc(-c4cccs4)n3)c(OC)n2)c1
24) COc1ccc(-c2ccc(-c3noc(C(C)C)n3)c(OC)n2)cc1

Assay by compound | 17 | 18 | 19 | 20 | 21 | 22 | 23 | 24
G9a block | 10µM* | 66% | 5%[2.33 µM] | -8%[59 µM] | 2.8µM* | 38%[59 µM] | 1.3µM* | 29%[59 µM]
Sfp PPTase inh | 11% | 5% | / | / | -2% | -1% | ? | 56µM*
ALDH1A1 block | / | / | / | / | 6% | ? | ? | ?
KDM4E inh | / | / | / | / | ? | 5% | ? | ?
miR-21 reporter | 22% | -10% | / | -6% | -8% | -51% | -5% | -40%
LMNA splice mod | / | / | / | / | 5% | ? | 5% | ?

Next part.
Abbreviations – A = G9a block; B = Sfp PPTase inh; C = ALDH1A1 block; D = KDM4E inh; E = miR-21 reporter; F = LMNA splice mod
25: COc1ccc(-c2ccc(-c3noc(-c4cc(OC)cc(OC)c4)n3)c(OC)n2)cc1
  A: 15%[59 µM] | B: / | C: / | D: / | E: -19% | F: /
26: Cc1ccc(-c2noc(-c3ccc(NC4CCCC4)c([N+](=O)[O-])c3)n2)cc1
  A: 1%[59 µM] | B: / | C: / | D: / | E: -2% | F: /
27: CN(C)S(=O)(=O)c1cccc(NC(=O)COC(=O)CNC(=O)c2cccc([N+](=O)[O-])c2)c1
  A: ? | B: ? | C: / | D: -4% | E: 9% | F: /
28: CC(COc1ccc(/C=C/c2ccccc2)cc1)[N+](C)(C)C (stereo unspecified)
  A: 4µM* | B: / | C: -8% | D: ? | E: / | F: ?
29: COc1ccc(/C=C/c2nc3ccccc3n2C)cc1
  A: 18%[59 µM] | B: -14% | C: ? | D: ? | E: ? | F: ?
30: COc1cc(C2CC(=O)Oc3cc(C)c(Br)c(C)c32)cc(OC)c1OC (stereo unspecified)
  A: 7%[59 µM] | B: -14% | C: -8% | D: / | E: / | F: /
31: Cc1cc[n+](-c2[nH]c(=O)sc2/C=N/NC([S-])=Nc2ccccc2)cc1C
  A: 32µM* | B: -11% | C: ? | D: -2% | E: -10% | F: -11%
32: CC(C)(C)c1cc[n+](-c2[nH]c(=O)sc2/C=N/NC([S-])=Nc2ccccc2)cc1
  A: 14µM* | B: 35µM* | C: 25µM* | D: -5% | E: -3% | F: /
33: Cc1ccc[n+](-c2[nH]c(=O)sc2/C=N/N=C(\[O-])CCn2c3ccccc3c3ccccc32)c1
  A: 0% | B: ? | C: / | D: 4% | E: -2% | F: /
34: Cc1cccc(OCC(=O)NNC(=O)c2ccc3nc[nH]c3c2)c1
  A: -14%[12.7 µM] | B: / | C: / | D: / | E: / | F: /
35: CCCCN(CC)C(=O)CSc1nc2n[nH]c(C)c2c(=N)n1-c1ccc(CC)cc1
  A: 5%[59 µM] | B: / | C: / | D: / | E: 29% | F: -5%[46 µM]
36: OC1CC(c2ccco2)NC2(CCCCC2)C1 (stereo unspecified)
  A: 8.9µM* | B: -23% | C: ? | D: 22µM* | E: -1% | F: -10%
37: c1coc(C2OCC3(CO2)COC(c2ccco2)OC3)c1 (stereo unspecified)
  A: 5% | B: 4% | C: / | D: 14% | E: -8% | F: /
38: CCOC(=O)OCC1OC(c2cc(C)cc(C)c2)C=CC1OC(=O)OCC (stereo unspecified)
  A: / | B: 10% | C: ? | D: / | E: / | F: /
39: CCOc1cc(C2C3=C(CCCC3=O)NC3=C2C(=O)CCC3)ccc1OCCO
  A: -28%[12.7 µM] | B: -5% | C: ? | D: 32µM* | E: 2% | F: -5%
40: C#CCOc1ccc(C2C3=C(CC(C)(C)CC3=O)N(CC(=O)O)C3=C2C(=O)CC(C)(C)C3)cc1OC
  A: / | B: -14% | C: / | D: / | E: 0% | F: /
41: CCOc1ccc(C2C3=C(CC(C)(C)CC3=O)N(CC(=O)O)C3=C2C(=O)CC(C)(C)C3)cc1OCC
  A: 50µM* | B: 0% | C: / | D: / | E: 0% | F: /
42: CCOc1ccc(CCNC(=O)CN2C(=O)C(CC)Oc3ccccc32)cc1OCC (stereo unspecified)
  A: -3%[59 µM] | B: / | C: / | D: / | E: -2% | F: -13%[46 µM]
43: COc1ccc(N/N=C(C)/C(=N/O)C(=O)Nc2ccccc2)cc1
  A: 22µM* | B: 4% | C: 14µM* | D: 0% | E: -23% | F: 0%[9.22 µM]
44: O=S(=O)(NCC(O)COCc1ccco1)c1cccs1 (stereo unspecified)
  A: -41%[59 µM] | B: 45µM* | C: 7.9µM* | D: 1% | E: -2% | F: 1%
45: COC(=O)C1=C(C(=O)OC)[C@@H]2Nc3ccccc3[C@@]23C[C@@H](C(=O)OC)N(S(=O)(=O)c2cccs2)C3=N1
  A: / | B: -7% | C: 17%[13.5 µM] | D: 8%[11.4 µM] | E: / | F: -1%[9.22 µM]
46: O=C(Cn1c(=O)c(CNc2ccccc2)cc2cc3c(cc21)OCCO3)Nc1ccccc1Cl
  A: ? | B: / | C: / | D: / | E: -4% | F: /

Bioassay records from PubChem BioAssay.
